logP (octanol/water) values, as collected for the OPERA models

Values as listed in the OPERA 2.9 repository of K. Mansouri.

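OPERA's authors assembled the values from existing databases and did not measure them anew. One number stands for a compound and property, with no spread given. Method, purity and exact conditions of the single measurements are not given. The measured form (salt, isomer or mixture) is not always the one drawn. Some upstream entries may be estimates or bounds without being marked so.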

The octanol-water partition coefficient is given as log10; larger values mean a more lipophilic compound. "n/a" marks a cell with nothing listed here. The databases behind each value are named after "via".

structure (SMILES)	name	logP (octanol/water)	via
C[C@@H]1C[C@H]2[C@@H]3C[C@H](F)C4=CC(=O)C=C[C@]4(C)[C@@]3(F)[C@@H](O)C[C@]2(C)[C@@]1(O)C(=O)S	n/a	1.298	eChemPortal
CN(C)CCN(C)CCO	2-{[2-(Dimethylamino)ethyl](methyl)amino}ethanol	0.264	eChemPortal
CC(=O)c1ccc2cc(O)c(O)cc2c1	1-(6,7-Dihydroxynaphthalen-2-yl)ethan-1-one	2.32	OCHEM
CC(C)C(N)C(=O)OCc1ccccc1.Cc1ccc(S(=O)(=O)O)cc1 (stereo unspecified)	4-Methylbenzene-1-sulfonic acid--benzyl valinate (1/1)	-0.13	eChemPortal
CC(C)=CCCC(C)=CC#N	Citralva	3.145	eChemPortal
CCC[C@H]1CC[C@H]([C@H]2CC[C@H](C=O)CC2)CC1	4'-Propyl-1,1'-bi(cyclohexyl)-4-carbaldehyde	4.7	eChemPortal
OCCCCCc1ccccc1	Benzenepentanol	2.89	OCHEM
CN(C)CCc1c[nH]c2ccc(C[C@H]3COC(=O)N3)cc12	Zolmitriptan	1.6	PubChem
CCCCCCCCCCCCCCCCSc1nc2ccc(S(=O)(=O)O)cc2[nH]1.[HH].[Na+]	n/a	4.7	eChemPortal
C=COCCOCCOC=C	{2-[2-(Ethenyloxy)ethoxy]ethoxy}ethene	1.8	eChemPortal
Nc1cc(N2CCOCC2)nc(N)[n+]1[O-]	2,4-Pyrimidinediamine, 6-(4-morpholinyl)-, 3-oxide	0.36	OCHEM
Cc1c([N+](=O)[O-])nc(Br)n1C	2-Bromo-1,5-dimethyl-4-nitro-1H-imidazole	0.39	OCHEM
Cc1ccccc1Nc1nc(Cl)nc(Nc2cc(S(=O)(=O)[O-])cc3cc(S(=O)(=O)[O-])c(/N=N/c4ccccc4S(=O)(=O)[O-])c(O)c23)n1.[Na+].[Na+].[Na+]	n/a	-4.483	eChemPortal
CCNC(=O)C1CC(C)CCC1C(C)C (stereo unspecified)	N-Ethyl-2-(isopropyl)-5-methylcyclohexanecarboxamide	2.902	eChemPortal
C=CCNCC	N-Ethylprop-2-en-1-amine	0.81	OCHEM
Cc1c(N=Nc2cccc(OS(=O)(=O)c3ccccc3)c2)c(O)n(C)c(=O)c1C#N	n/a	5.39	eChemPortal
O=S(=O)([O-])c1ccc(Nc2nc(Cl)nc(Cl)n2)cc1.[Na+]	n/a	-0.48	eChemPortal
CC(C)(C)N(CC(=O)c1ccc(O)c(CO)c1)Cc1ccccc1.Cl	n/a	-0.77	eChemPortal
C[SiH](C)C	Silane, trimethyl-	1.205	eChemPortal
FC(F)(I)C(F)(F)C(F)(F)C(F)(F)I	Perfluoro-1,4-diiodobutane	3.8	eChemPortal
CCCCCCCC(=O)N(C)C	N,N-Dimethyloctanamide	2.59	eChemPortal
CCCCC/C(C=O)=C\c1ccc(C)cc1	(2E)-2-[(4-Methylphenyl)methylene]heptanal	5.3	eChemPortal
CC1(C)CC(NC(=O)c2cccc(C(=O)NC3CC(C)(C)NC(C)(C)C3)c2)CC(C)(C)N1	N,N'-Bis(2,2,6,6-tetramethyl-4-piperidyl)isophthalamide	1.12	eChemPortal
CCCCC(CC)C(=O)OCCOCCOCCOCCOC(=O)C(CC)CCCC (stereo unspecified)	Tetraethylene glycol di(2-ethylhexanoate)	6.1	eChemPortal
O=C1CCc2cc(OCCCCc3nnnn3C3CCCCC3)ccc2N1	Cilostazol	2.3	PubChem
C=COC1CCCCC1	(Ethenyloxy)-cyclohexane	3.4	eChemPortal
CCCCCCCCCCCCCCCCN(C)C	N,N-Dimethyl-1-hexadecanamine	6.91	eChemPortal
NCCCCC(N)C(=O)O.O=C(O)COc1nn(Cc2ccccc2)c2ccccc12	[(1-Benzyl-1H-indazol-3-yl)oxy]acetic acid--lysine (1/1)	0.196	eChemPortal
Nc1nc(=O)[nH]cc1F	Flucytosine	-1.23	PubChem, eChemPortal
CC(C)[C@@H]1CC[C@@H](C)C[C@H]1OC(=O)OCCO	Menthyl glycol carbonate	3.55	eChemPortal
CCN(CC)c1ccc(N=Nc2c(C#N)cc(C)cc2C#N)c(NS(C)(=O)=O)c1	n/a	3.7	eChemPortal
Brc1cnc2[nH]ccc2c1	5-Bromo-7-azaindole	1.8	eChemPortal
COCC(CCC(C)C)(COC)C(C)C	3,3-Bis(methoxymethyl)-2,6-dimethylheptane	2.5	eChemPortal
C#C[C@]1(O)CC[C@H]2[C@@H]3CCc4cc(OC)ccc4[C@H]3CC[C@@]21C	Mestranol	4.61	PubChem
O=S(=O)(c1ccccc1)N(SC(Cl)(Cl)Cl)c1ccccc1	Benzenesulfonamide, N-phenyl-N-[(trichloromethyl)thio]-	4.73	eChemPortal
Nc1ccc(-c2ccc(N)c3c2C(=O)c2ccccc2C3=O)c2c1C(=O)c1ccccc1C2=O	Pigment Red 177	-0.245	eChemPortal
S=C([S-])NCCNC(=S)[S-].[Zn+2]	Zineb	1.3	OCHEM
Cc1nccn1CCc1nc(N)nc(N)n1	n/a	-0.06	eChemPortal
Cc1cccc(C)c1OCC(=O)O	Acetic acid, (2,6-dimethylphenoxy)- (9CI)	0.91	eChemPortal
CC1(C)C(=O)N(CCO)C(=O)N1CCO	n/a	0.048	eChemPortal
CCCCC(CC)COS(=O)(=O)[O-].[Na+] (stereo unspecified)	Sodium ethasulfate	-0.248	eChemPortal
Nc1c(S(=O)(=O)[O-])cc(NC2CCC(Nc3nc(Nc4cc(S(=O)(=O)[O-])ccc4S(=O)(=O)[O-])nc(-[n+]4cccc(C(=O)O)c4)n3)CC2)c2c1C(=O)c1ccccc1C2=O.[Na+].[Na+].[Na+] (stereo unspecified)	n/a	-4.169	eChemPortal
COc1ccc(C(=O)Nc2ccc(C3=NNC(=O)CC3C)cc2N)cc1 (stereo unspecified)	n/a	-0.1	eChemPortal

Repeated from above, the 7 entries with the highest logP (octanol/water):

structure (SMILES)	name	logP (octanol/water)	via
CCCCCCCCCCCCCCCCN(C)C	N,N-Dimethyl-1-hexadecanamine	6.91	eChemPortal
CCCCC(CC)C(=O)OCCOCCOCCOCCOC(=O)C(CC)CCCC (stereo unspecified)	Tetraethylene glycol di(2-ethylhexanoate)	6.1	eChemPortal
Cc1c(N=Nc2cccc(OS(=O)(=O)c3ccccc3)c2)c(O)n(C)c(=O)c1C#N	n/a	5.39	eChemPortal
CCCCC/C(C=O)=C\c1ccc(C)cc1	(2E)-2-[(4-Methylphenyl)methylene]heptanal	5.3	eChemPortal
O=S(=O)(c1ccccc1)N(SC(Cl)(Cl)Cl)c1ccccc1	Benzenesulfonamide, N-phenyl-N-[(trichloromethyl)thio]-	4.73	eChemPortal
CCCCCCCCCCCCCCCCSc1nc2ccc(S(=O)(=O)O)cc2[nH]1.[HH].[Na+]	n/a	4.7	eChemPortal
CCC[C@H]1CC[C@H]([C@H]2CC[C@H](C=O)CC2)CC1	4'-Propyl-1,1'-bi(cyclohexyl)-4-carbaldehyde	4.7	eChemPortal